The text below walks through data of patent publication US10487068B2, “Pyridazine derivatives as RORc modulators” (Genentech, Inc., priority 2015, dated 2019).

Chains of the proteins cited; added tags and fusions are not shown. Residues count along the entry.
UniProt P51449, 269-508 limits assumed: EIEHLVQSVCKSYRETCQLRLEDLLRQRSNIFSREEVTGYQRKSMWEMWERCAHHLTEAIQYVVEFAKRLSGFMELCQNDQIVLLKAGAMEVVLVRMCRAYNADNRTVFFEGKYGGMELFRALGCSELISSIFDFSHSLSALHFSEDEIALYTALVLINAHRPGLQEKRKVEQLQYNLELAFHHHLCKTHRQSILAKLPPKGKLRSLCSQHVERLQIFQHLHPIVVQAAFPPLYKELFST

The target of this experiment is RORc ligand binding domain (Homo sapiens, UniProt P51449). Nature of the experiment: In Vitro RORc Ligand Binding Assay. The following applies: RORc IC50, radioligand 25-[3H]hydroxycholesterol 6 nM; 0.6 ug/mL RORc receptor; 3 h at 25° C.

As for `CC1(C)[C@H]2CC[C@]1(c1ccnc(N3CCC(O)CC3)n1)c1nnc(-c3c(F)cccc3F)cc12` [Example 332], the IC50 was found to be 2.9 nM. The same measure for `CCc1ncn(-c2nccc([C@@]34CC[C@@H](c5cc(-c6c(F)cccc6F)nnc53)C4(C)C)n2)n1` [Example 272]: 2.9 nM; for `Cc1ccc(C#N)nc1[C@@]12CC[C@@H](c3cc(-c4c(F)cccc4F)nnc31)C2(C)C` [Example 186, 6-((5R,8S)-3-(2,6-difluorophenyl)-9,9-dimethyl-5,6,7,8-tetrahydro-5,8-methanocinnolin-8-yl)-5-methylpicolinonitrile]: 2.9 nM; for `CC1(C)[C@H]2CC[C@]1(c1ccnc(N3CCC[C@H]3CO)n1)c1nnc(-c3c(F)cccc3F)cc12` [Example 331]: 2.9 nM.

As a reminder, the IC50 is the concentration that gives 50% inhibition. Higher therefore signals lower potency.
